Source: patent US12622948B2 (SUN PHARMACEUTICAL INDUSTRIES LIMITED, priority 2020, dated 2026)
pEC50: −log10 of the molar value. Marks after values point to notes of the source that are not given here.

Tests used:
[1] = test system: type 2 diabetic mouse (db/db) model; test: Efficacy study in db/db mice at 10 nM/kg dose (blood glucose, body weight, food intake); assay type: in vivo; settings: Study 1, db/db mice, 10 nM/kg s.c.
Protocol: The effect of compounds of present invention on blood glucose, food intake and body weight was studied in mice. This study was performed in a type 2 diabetic mouse (db/db) model. […] Baseline blood glucose was measured from all the animals. All the animals were administered with test items subcutaneously. […] Delta blood glucose (mM) was calculated. […] The animals were divided into 7 treatment groups (n=6)—a diabetic control group, Compound 1, Compound 3, Compound 4, Compound 5, Compound 6 and Compound 7. Baseline blood glucose was measured from all the animals. All the animals were administered with test items subcutaneously. […] Delta blood glucose (mM) was calculated. […] Similarly, the efficacy of Compound 8 and 9 in db/db mice at 10 nM/kg dose were carried out in a separate study. The animals were divided into 3 treatment groups (n=5)—a diabetic control group, Compound 8 and Compound 9. Baseline blood glucose was measured from all the animals. All the animals were administered with test items subcutaneously. […] Delta blood glucose (mM) was calculated. […] Another separate efficacy study for Compound 10, 11 and 12 in db/db mice at 10 nM/kg dose were carried out. The animals were divided into 4 treatment groups (n=5)—a diabetic control group, Compound 10, Compound 11 and Compound 12. Baseline blood glucose was measured from all the animals. All the animals were administered with test items subcutaneously. […] Delta blood glucose (mM) was calculated.

[2] = test system: type 2 diabetic mouse (db/db) model; test: Efficacy study in db/db mice at 3 and 20 nM/kg dose (blood glucose, body weight, food intake); assay type: in vivo
Protocol: The effect of compounds of present invention on blood glucose, food intake and body weight was studied on mice. This study was performed in type 2 diabetic mouse (db/db) model. […] Baseline blood glucose was measured from all the animals. All animals were administered with test items subcutaneously. […] Delta blood glucose (mM) was calculated. Body weight changes and cumulative food consumption was measured at 72 hr post treatment.

GIPR = target: T1, GIPR (Homo sapiens, UniProt P48546); test: Cellular cAMP assay (cAMP Hunter eXpress GPCR Assay), GIPR-expressing cells; assay type: cell-based; settings: cAMP production, read-out: Half effective Concentration (EC50) GIPR
T1 sequence (P48546 22-466): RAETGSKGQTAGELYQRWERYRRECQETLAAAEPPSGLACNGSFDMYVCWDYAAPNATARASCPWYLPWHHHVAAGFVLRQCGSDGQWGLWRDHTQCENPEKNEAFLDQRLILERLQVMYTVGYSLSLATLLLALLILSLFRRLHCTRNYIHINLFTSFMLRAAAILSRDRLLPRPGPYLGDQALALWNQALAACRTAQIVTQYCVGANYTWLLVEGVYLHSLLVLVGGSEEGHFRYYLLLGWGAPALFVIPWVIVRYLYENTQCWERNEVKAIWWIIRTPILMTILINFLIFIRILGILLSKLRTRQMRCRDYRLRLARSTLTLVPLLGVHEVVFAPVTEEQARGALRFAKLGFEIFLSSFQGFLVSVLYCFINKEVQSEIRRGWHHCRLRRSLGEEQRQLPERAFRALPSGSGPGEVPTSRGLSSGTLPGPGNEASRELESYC
Source text: G protein coupled receptor (GPCR) activation following ligand binding initiates a series of second messenger cascades that results in a cellular response.

Question: With Tirzepatide [reference compound] as the substance, how does the “Delta Blood Glucose (mM), Mean” value ([1]; 0 hr (baseline)) read?
Answer: Its value is 0 mM.

Question: And the “Delta Blood Glucose (mM), Mean” value ([1]; 4 hr)?
Answer: The value was −9.9*** mM.

Question: And the “Delta Blood Glucose (mM), Mean” value ([1]; 8 hr)?
Answer: Its value is −8.7*** mM.

Question: And the “Delta Blood Glucose (mM), Mean” value ([1]; 12 hr)?
Answer: The value was −8.6*** mM.

Question: What about the “Delta Blood Glucose (mM), Mean” value ([1]; 24 hr) of the same substance?
Answer: Its value is −11.4*** mM.

Question: What about the “Delta Blood Glucose (mM), Mean” value ([1]; 48 hr) of the same substance?
Answer: The value was −5.3*** mM.

Question: And the “Delta Blood Glucose (mM), Mean” value ([1]; 72 hr)?
Answer: The value was −3.7*** mM.

Question: And the “Delta Blood Glucose (mM), Mean” value ([1]; 96 hr)?
Answer: The value was 3.7 mM.

Question: What about the “Delta Blood Glucose (mM), Mean” value ([2]; 3 nM/kg s.c., 0 hr (baseline)) of the same substance?
Answer: Its value is 0.0 mM.

Question: What about the “Delta Blood Glucose (mM), Mean” value ([2]; 3 nM/kg s.c., 4 hr) of the same substance?
Answer: Its value is −4.4* mM.

Question: And the “Delta Blood Glucose (mM), Mean” value ([2]; 3 nM/kg s.c., 24 hr)?
Answer: Its value is -1.6 mM.

Question: What about the “Delta Blood Glucose (mM), Mean” value ([2]; 3 nM/kg s.c., 48 hr) of the same substance?
Answer: The value was 0.7 mM.

Question: And the “Delta Blood Glucose (mM), Mean” value ([2]; 3 nM/kg s.c., 72 hr)?
Answer: The value was 1.4 mM.

Question: What about the “Delta Blood Glucose (mM), Mean” value ([2]; 20 nM/kg s.c., 0 hr (baseline)) of the same substance?
Answer: Its value is 0.0 mM.

Question: What about the “Delta Blood Glucose (mM), Mean” value ([2]; 20 nM/kg s.c., 4 hr) of the same substance?
Answer: The value was −8.2*** mM.

Question: And the “Delta Blood Glucose (mM), Mean” value ([2]; 20 nM/kg s.c., 24 hr)?
Answer: Its value is −11.1*** mM.

Question: What about the “Delta Blood Glucose (mM), Mean” value ([2]; 20 nM/kg s.c., 48 hr) of the same substance?
Answer: Its value is −7.6*** mM.

Question: What about the “Delta Blood Glucose (mM), Mean” value ([2]; 20 nM/kg s.c., 72 hr) of the same substance?
Answer: The value was -1.3 mM.

Question: What about the pEC50 (GIPR) of the same substance?
Answer: Its pEC50 is 8.72.
